Measurements as given in the kinase profiling compilation of Christmann-Franck et al. (2016).

Chains of the proteins cited; added tags and fusions are not shown. Lines headed by an entry give the natural chain unless they say otherwise; changes in a name come on top.
UniProt Q08881: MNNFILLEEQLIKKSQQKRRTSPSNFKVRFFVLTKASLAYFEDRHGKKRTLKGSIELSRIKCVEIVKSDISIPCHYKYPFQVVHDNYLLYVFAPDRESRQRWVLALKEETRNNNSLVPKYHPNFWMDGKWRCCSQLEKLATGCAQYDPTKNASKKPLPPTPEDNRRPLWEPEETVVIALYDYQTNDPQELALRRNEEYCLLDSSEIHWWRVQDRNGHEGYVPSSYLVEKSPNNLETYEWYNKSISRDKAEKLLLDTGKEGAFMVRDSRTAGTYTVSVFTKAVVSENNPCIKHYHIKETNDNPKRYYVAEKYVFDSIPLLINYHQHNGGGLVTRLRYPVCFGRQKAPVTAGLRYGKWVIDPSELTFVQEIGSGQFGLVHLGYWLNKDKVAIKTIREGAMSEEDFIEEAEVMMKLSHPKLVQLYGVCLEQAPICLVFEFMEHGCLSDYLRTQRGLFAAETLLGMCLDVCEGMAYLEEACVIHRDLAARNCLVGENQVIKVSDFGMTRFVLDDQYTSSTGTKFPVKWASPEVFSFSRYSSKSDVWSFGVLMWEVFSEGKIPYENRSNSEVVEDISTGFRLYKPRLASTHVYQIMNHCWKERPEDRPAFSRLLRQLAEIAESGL
UniProt Q9BXA7: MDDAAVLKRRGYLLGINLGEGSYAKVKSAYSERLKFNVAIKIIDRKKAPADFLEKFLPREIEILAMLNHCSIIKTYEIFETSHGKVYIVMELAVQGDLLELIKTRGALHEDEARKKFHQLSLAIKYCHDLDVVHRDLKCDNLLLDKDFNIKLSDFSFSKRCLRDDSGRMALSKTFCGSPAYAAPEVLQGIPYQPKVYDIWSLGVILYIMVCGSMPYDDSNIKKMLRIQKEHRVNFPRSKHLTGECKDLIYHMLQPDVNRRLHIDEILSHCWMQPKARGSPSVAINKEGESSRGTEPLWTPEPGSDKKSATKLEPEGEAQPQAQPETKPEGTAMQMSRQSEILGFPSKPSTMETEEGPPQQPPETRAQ
UniProt Q96NX5: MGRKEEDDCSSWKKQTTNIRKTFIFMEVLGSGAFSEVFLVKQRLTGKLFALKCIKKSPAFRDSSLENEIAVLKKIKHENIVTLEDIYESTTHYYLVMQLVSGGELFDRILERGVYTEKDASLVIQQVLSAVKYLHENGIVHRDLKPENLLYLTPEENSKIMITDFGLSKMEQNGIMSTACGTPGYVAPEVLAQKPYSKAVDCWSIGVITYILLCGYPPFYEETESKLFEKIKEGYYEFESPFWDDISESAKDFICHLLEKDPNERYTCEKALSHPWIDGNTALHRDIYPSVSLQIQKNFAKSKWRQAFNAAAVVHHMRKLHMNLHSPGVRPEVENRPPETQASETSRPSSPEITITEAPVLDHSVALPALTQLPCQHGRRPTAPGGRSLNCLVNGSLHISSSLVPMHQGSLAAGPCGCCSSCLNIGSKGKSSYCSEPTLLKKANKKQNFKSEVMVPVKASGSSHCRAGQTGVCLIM
UniProt Q9H422: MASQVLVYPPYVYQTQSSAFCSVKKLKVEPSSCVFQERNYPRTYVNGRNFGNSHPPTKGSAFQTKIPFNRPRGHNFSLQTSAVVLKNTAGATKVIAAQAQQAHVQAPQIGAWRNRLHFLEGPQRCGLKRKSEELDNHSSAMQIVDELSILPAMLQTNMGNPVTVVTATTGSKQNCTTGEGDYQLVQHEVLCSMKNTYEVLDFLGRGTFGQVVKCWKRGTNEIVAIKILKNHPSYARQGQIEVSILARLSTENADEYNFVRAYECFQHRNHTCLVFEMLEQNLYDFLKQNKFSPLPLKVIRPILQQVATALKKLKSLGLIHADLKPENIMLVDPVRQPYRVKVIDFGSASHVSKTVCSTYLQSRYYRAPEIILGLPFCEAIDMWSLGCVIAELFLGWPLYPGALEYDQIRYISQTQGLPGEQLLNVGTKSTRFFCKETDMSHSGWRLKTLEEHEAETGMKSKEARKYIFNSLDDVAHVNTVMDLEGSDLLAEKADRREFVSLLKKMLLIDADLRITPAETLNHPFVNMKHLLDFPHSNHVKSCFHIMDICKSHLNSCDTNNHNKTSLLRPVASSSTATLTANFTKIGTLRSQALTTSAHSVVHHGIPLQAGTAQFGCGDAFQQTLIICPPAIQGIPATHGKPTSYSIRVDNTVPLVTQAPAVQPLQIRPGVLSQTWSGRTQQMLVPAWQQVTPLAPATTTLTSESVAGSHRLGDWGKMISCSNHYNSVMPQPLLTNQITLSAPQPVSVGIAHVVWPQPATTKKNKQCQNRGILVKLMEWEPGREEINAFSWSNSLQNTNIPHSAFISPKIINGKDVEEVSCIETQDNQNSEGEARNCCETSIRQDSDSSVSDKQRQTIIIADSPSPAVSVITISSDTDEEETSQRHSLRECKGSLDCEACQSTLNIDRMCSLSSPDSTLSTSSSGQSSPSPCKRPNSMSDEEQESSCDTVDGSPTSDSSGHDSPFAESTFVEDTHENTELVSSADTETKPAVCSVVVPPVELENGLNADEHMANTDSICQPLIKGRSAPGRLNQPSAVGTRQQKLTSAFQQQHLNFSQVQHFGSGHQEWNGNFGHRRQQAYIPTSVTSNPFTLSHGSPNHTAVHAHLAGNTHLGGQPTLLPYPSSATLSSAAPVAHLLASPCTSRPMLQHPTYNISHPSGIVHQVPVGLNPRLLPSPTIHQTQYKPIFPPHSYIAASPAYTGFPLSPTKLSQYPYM
UniProt P54760: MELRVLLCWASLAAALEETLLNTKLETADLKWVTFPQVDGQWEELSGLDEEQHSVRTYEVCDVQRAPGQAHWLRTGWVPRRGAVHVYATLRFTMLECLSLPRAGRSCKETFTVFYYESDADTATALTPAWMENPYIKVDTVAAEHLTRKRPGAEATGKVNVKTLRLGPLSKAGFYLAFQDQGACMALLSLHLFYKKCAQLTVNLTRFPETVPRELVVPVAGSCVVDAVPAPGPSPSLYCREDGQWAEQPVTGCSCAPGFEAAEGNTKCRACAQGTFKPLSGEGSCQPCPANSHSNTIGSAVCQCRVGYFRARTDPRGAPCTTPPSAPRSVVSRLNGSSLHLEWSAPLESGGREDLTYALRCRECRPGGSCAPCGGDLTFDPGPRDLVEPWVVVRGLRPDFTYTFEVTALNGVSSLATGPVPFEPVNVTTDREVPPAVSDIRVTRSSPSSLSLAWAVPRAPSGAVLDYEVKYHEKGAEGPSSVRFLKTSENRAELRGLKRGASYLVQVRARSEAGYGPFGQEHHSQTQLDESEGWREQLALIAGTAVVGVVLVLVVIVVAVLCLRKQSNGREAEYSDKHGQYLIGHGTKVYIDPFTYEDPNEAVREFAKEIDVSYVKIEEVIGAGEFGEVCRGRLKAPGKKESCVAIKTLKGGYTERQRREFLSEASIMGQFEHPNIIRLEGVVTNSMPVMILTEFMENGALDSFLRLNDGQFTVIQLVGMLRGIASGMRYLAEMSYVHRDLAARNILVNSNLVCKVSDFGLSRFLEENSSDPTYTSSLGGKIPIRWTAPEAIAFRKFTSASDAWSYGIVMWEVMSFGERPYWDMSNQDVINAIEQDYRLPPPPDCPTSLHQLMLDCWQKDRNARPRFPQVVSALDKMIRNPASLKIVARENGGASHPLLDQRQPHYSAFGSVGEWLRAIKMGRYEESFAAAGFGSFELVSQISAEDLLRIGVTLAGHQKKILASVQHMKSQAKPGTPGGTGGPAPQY
UniProt O75116: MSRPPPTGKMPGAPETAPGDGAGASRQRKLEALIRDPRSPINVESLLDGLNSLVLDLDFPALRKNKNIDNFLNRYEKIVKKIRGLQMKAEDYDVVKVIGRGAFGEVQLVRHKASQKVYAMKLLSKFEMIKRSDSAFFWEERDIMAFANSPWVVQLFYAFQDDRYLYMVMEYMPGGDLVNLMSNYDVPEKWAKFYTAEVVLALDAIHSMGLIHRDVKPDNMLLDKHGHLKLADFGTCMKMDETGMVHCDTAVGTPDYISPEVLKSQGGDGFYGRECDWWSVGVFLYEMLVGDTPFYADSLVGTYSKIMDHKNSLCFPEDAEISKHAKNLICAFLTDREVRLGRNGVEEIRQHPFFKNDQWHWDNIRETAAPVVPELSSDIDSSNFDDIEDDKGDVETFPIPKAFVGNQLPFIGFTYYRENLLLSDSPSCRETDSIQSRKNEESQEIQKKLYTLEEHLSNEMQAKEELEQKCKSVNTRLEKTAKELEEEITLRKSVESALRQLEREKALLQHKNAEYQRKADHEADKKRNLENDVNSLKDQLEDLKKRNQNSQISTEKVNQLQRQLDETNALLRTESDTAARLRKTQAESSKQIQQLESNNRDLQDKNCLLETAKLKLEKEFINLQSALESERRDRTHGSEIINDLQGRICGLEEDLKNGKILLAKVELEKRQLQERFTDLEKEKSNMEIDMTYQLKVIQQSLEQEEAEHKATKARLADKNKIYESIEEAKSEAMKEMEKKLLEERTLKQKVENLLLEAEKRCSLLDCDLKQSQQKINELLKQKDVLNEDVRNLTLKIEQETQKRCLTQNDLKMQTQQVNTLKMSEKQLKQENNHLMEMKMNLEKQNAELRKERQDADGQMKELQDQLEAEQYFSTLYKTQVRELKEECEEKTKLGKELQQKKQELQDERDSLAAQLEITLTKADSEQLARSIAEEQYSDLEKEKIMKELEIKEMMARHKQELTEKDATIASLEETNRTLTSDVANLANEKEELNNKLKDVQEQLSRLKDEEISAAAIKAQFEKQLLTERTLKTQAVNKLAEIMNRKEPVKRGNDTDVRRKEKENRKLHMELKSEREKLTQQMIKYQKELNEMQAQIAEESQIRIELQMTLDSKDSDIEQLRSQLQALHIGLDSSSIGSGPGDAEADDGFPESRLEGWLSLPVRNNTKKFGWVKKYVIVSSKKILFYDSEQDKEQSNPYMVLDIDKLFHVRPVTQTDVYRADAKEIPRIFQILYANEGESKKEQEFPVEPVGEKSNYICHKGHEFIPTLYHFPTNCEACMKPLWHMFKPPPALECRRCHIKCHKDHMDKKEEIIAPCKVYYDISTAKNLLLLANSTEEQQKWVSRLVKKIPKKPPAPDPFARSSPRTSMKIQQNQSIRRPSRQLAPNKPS
UniProt Q13557, whole entry, looked up: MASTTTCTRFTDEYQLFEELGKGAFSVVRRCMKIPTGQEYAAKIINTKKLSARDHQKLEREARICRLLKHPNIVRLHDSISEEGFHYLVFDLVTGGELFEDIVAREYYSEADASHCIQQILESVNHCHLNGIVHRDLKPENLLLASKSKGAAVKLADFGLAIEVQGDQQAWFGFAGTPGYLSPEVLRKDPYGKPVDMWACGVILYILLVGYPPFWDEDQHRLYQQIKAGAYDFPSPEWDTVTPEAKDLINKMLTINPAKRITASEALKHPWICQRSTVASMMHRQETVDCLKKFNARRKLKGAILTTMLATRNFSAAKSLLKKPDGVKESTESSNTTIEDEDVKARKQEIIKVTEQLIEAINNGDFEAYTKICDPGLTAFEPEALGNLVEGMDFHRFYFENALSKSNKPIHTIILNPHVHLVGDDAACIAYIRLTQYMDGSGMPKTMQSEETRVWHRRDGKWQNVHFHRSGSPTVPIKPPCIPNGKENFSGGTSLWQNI
UniProt Q9UQB9: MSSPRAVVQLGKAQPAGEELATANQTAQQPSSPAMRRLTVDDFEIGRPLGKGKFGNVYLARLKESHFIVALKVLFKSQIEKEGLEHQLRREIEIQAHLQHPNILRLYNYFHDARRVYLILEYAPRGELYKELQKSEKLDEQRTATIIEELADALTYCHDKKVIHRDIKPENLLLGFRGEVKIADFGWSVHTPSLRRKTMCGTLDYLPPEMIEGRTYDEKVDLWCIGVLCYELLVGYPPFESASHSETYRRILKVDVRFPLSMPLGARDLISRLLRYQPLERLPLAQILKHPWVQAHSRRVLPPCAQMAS
UniProt Q8NG66: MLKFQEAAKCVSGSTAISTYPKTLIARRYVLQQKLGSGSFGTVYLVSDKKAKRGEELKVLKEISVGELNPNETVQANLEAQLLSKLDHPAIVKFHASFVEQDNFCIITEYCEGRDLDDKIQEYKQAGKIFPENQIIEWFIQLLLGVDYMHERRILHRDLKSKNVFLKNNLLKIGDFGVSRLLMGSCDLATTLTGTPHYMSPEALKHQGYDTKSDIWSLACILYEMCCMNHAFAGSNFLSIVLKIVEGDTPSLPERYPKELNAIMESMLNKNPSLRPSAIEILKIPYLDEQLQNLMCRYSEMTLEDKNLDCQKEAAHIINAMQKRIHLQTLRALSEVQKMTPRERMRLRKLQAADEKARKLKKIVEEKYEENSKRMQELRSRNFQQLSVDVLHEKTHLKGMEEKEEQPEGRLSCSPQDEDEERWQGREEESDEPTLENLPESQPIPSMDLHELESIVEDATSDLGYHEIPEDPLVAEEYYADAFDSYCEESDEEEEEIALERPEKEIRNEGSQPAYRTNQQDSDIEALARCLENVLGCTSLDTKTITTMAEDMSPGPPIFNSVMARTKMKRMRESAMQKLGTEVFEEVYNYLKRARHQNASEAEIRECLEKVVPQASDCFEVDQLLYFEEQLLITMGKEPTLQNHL

Key:
Assay in all cases: radiometric filter-binding kinase assay, Kinase HotSpot
Settings in all cases: compound 0.5 µM; ATP 10 µM
[1] = molecular target: MINK1 (human) (UniProt Q8N4C8)
[2] = molecular target: SIK2 (human) (UniProt Q9H0K1)
[3] = molecular target: MET (human) (UniProt P08581)
[4] = molecular target: ADRBK1 (human) (UniProt P25098)
[5] = molecular target: IKBKB (human) (UniProt O14920)
[6] = molecular target: CLK2 (human) (UniProt P49760)
[7] = molecular target: ITK (human) (UniProt Q08881)
[8] = molecular target: RPS6KB1 (human) (UniProt P23443)
[9] = molecular target: WNK3 (human) (UniProt Q9BYP7)
[10] = molecular target: DAPK3 (human) (UniProt O43293)
[11] = molecular target: MERTK (human) (UniProt Q12866)
[12] = molecular target: MAPK10 (human) (UniProt P53779)
[13] = molecular target: PLK3 (human) (UniProt Q9H4B4)
[14] = molecular target: CLK4 (human) (UniProt Q9HAZ1)
[15] = molecular target: PIM1 (human) (UniProt P11309)
[16] = molecular target: TSSK1B (human) (UniProt Q9BXA7)
[17] = molecular target: FLT3 (human) (UniProt P36888)
[18] = molecular target: CAMK1 (human) (UniProt Q14012)
[19] = molecular target: MARK3 (human) (UniProt P27448)
[20] = molecular target: PDGFRB (human) (UniProt P09619)
[21] = molecular target: CAMK1G (human) (UniProt Q96NX5)
[22] = molecular target: NEK9 (human) (UniProt Q8TD19)
[23] = molecular target: HIPK3 (human) (UniProt Q9H422)
[24] = molecular target: PAK4 (human) (UniProt O96013)
[25] = molecular target: WEE1 (human) (UniProt P30291)
[26] = molecular target: CSF1R (human) (UniProt P07333)
[27] = molecular target: NUAK1 (human) (UniProt O60285)
[28] = molecular target: MUSK (human) (UniProt O15146)
[29] = molecular target: EPHB4 (human) (UniProt P54760)
[30] = molecular target: TGFBR1 (human) (UniProt P36897)
[31] = molecular target: ROCK2 (human) (UniProt O75116)
[32] = molecular target: CAMK4 (human) (UniProt Q16566)
[33] = molecular target: CAMK2D (human) (UniProt Q13557)
[34] = molecular target: EPHA5 (human) (UniProt P54756)
[35] = molecular target: PRKCZ (human) (UniProt Q05513)
[36] = molecular target: AURKC (human) (UniProt Q9UQB9)
[37] = molecular target: CSNK1G3 (human) (UniProt Q9Y6M4)
[38] = molecular target: FGFR1 (human) (UniProt P11362)
[39] = molecular target: AURKA (human) (UniProt O14965)
[40] = molecular target: CHEK1 (human) (UniProt O14757)
[41] = molecular target: NEK11 (human) (UniProt Q8NG66)
[42] = molecular target: MAP3K14 (human) (UniProt Q99558)

O=C1c2ccccc2-[n+]2ccc3c([nH]c4ccccc43)c21
residual activity [1]: 83.2% | residual activity [2]: 106% | residual activity [3]: 87.3% | residual activity [4]: 102% | residual activity [5]: 86.7% | residual activity [6]: 99.5% | residual activity [7]: 101% | residual activity [8]: 96.9% | residual activity [9]: 102% | residual activity [10]: 87.1% | residual activity [11]: 87.8% | residual activity [12]: 71.6% | residual activity [13]: 73% | residual activity [14]: 90.2% | residual activity [15]: 96.5% | residual activity [16]: 89.9% | residual activity [17]: 88.6% | residual activity [18]: 84.7% | residual activity [19]: 96.4% | residual activity [20]: 88.3% | residual activity [21]: 91% | residual activity [22]: 109% | residual activity [23]: 103% | residual activity [24]: 99.6% | residual activity [25]: 89.5% | residual activity [26]: 89.9% | residual activity [27]: 94.3% | residual activity [28]: 102% | residual activity [29]: 102% | residual activity [30]: 101% | residual activity [31]: 96.9% | residual activity [32]: 88.3% | residual activity [33]: 98.5% | residual activity [34]: 106% | residual activity [35]: 93.7% | residual activity [36]: 93.8% | residual activity [37]: 79.7% | residual activity [38]: 71.5% | residual activity [39]: 86.6% | residual activity [40]: 98.8% | residual activity [41]: 91.6% | residual activity [42]: 89.8%

COc1cc(OC)c(/C=C2\C(=O)Nc3ccccc32)c(OC)c1
residual activity [1]: 76.8% | residual activity [2]: 106% | residual activity [3]: 150% | residual activity [4]: 97.5% | residual activity [5]: 94.5% | residual activity [6]: 96.2% | residual activity [7]: 99.7% | residual activity [8]: 84.8% | residual activity [9]: 97.6% | residual activity [10]: 98.1% | residual activity [11]: 91.7% | residual activity [12]: 88.4% | residual activity [13]: 97.7% | residual activity [14]: 92.5% | residual activity [15]: 95.1% | residual activity [16]: 98.3% | residual activity [17]: 95.7% | residual activity [18]: 92.6% | residual activity [19]: 105% | residual activity [20]: 85.8% | residual activity [21]: 103% | residual activity [22]: 108% | residual activity [23]: 91.1% | residual activity [24]: 89% | residual activity [25]: 94.2% | residual activity [26]: 99.3% | residual activity [27]: 94.6% | residual activity [28]: 96% | residual activity [29]: 95.5% | residual activity [30]: 103% | residual activity [31]: 96.5% | residual activity [32]: 97.3% | residual activity [33]: 95.7% | residual activity [34]: 113% | residual activity [35]: 91.7% | residual activity [36]: 98.5% | residual activity [37]: 101% | residual activity [38]: 83.5% | residual activity [39]: 102% | residual activity [40]: 101% | residual activity [41]: 100% | residual activity [42]: 89.9%
